Measured values reported in US6194423A, “Fused isoquinolines as dopamine receptor ligands” (priority 1999, dated 2001).

System: D1 receptors
Assay: Adenylate cyclase activity (cAMP accumulation) in rat striatal homogenates
Type: biochemical
Description: Adenylate cyclase activity in rat striatum. The automated HPLC method of Schulz and Mailman was used to measure adenylate cyclase activity by separating cAMP from other labeled nucleotides. […] Triplicate determinations were performed for each drug concentration.
The reaction proceeded for 15 min at 30° C. and was terminated by the addition of 100 μL of 3% sodium dodecyl sulfate (SDS). […] Samples were centrifuged (10,000×g for 8-9 min), and the supernatants injected on an HPLC system (Waters Z-module or RCM 8×10 module equipped with a C18, 10 micron cartridge). […] The radioactivity in each fraction was determined by a flow-through radiation detector (Inus Systems, Tampa, Fla.) using Cerenkov counting. Sample recovery was based on UV measurement of total unlabeled CAMP peak areas quantified using PE Nelson (Cupertino, Calif.) Model 900 data collection modules and TurboChrom software.
Data analysis for adenylate cyclase studies. Data for each sample were expressed initially as pmol/mg/min cAMP. Baseline values of cAMP were subtracted from the total amount of cAMP produced in each drug condition. Data for each drug were expressed relative to the stimulation produced by 100 μM DA.

Question: With `CN1CCc2cc(Cl)c(O)cc2[C@@H](c2ccccc2)C1` [SCH23390, reference compound] as the molecule, how does the “blockade of agonist-stimulated cAMP synthesis” value read?
Answer: These effects were blocked
